Earlier results as cited in patent US20070116643A1, “Novel aryloxypropanamines” (Concert Pharmaceuticals Inc., priority 2005, published 2007).
Where a name gives a salt, the structure may show the parent alone.

What was measured:
[1] = test system: immobility in forced swim test; details: forced swim test animal model
[2] = in humans

CNCC[C@H](Oc1cccc2ccccc12)c1cccs1 [Compound A, (S)-N-methyl-3-(naphthalen-1-yloxy)-3-(thiophen-2-yl)propan-1-amine hydrochloride]
attenuation of immobility [1]: potent attenuation of immobility | antidepressant activity [2]: potent antidepressant activity
